# Values of other authors, collected in US20080200635A1, “POLYSILANE COMPOUND AND SYNTHESIS METHOD, ULTRAVIOLET-RAY CURABLE INK COMPOSITION, INKJET RECORDING METHOD AND APPARATUS, AND INK CONTAINER” (SEIKO EPSON CORPORATION, priority 2007, published 2008).
# Settings: primary irritation index; cited from earlier work
substance,measurement,value
Glycerin PO-modified triacrylate,P.I.I.,0.8
